{"sequences": {"note": "The chains behind the UniProt entries cited, without tags or fusion partners.", "UniProt P03372, whole entry": "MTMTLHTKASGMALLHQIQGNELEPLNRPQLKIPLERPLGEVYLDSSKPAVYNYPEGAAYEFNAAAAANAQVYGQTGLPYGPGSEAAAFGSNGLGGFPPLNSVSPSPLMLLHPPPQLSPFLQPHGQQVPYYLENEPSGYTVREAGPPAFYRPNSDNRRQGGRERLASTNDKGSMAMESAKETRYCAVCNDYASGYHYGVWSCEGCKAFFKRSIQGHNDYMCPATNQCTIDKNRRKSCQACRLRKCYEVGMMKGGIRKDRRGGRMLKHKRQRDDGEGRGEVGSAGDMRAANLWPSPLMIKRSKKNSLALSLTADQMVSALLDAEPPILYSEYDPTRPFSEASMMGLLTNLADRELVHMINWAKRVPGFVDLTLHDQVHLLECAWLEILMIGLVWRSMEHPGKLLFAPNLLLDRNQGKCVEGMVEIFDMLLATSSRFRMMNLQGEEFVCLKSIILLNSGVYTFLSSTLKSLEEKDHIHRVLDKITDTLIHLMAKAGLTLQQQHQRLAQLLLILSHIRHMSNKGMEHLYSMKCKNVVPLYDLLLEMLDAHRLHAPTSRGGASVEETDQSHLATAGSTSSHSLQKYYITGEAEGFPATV"}, "source": "patent US20250127796A1", "about": "“METHODS OF TREATING CANCER WITH PI3K INHIBITOR, GDC-0077” (Genentech, Inc., priority 2018, published 2025)", "origin": "cited, not measured here", "biological_target": "ER (Homo sapiens, UniProt P03372)", "conditions": "relative to tamoxifen; cited from earlier work", "data": [{"smiles": "C[C@]12CC[C@@H]3c4ccc(O)cc4C[C@@H](CCCCCCCCC[S+]([O-])CCCC(F)(F)C(F)(F)F)[C@H]3[C@@H]1CC[C@@H]2O", "note": "(stereo partly drawn) [fulvestrant, (7α,17β)-7-{9-[(4,4,5,5,5-pentafluoropentyl)sulfinyl]nonyl}estra-1,3,5(10)-triene-3,17-diol]", "values": [{"measurement": "affinity for the ER, fold greater than that of tamoxifen", "result": "approximately 100 fold"}]}]}
